## Yeast mating assay 2: variants of the scFv Ab-95

Target peptide (SARS-CoV-2 spike, HR2 region): PDVDLGDISGINAS

Each scFv is VH, the linker GGGGSGGGGSGGGGS, VL, as in the parent Ab-95, and differs from it in the CDRs of the light chain only.
VH: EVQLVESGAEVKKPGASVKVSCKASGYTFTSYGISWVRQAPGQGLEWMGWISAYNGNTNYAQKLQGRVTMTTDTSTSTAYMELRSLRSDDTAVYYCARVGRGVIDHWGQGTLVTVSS
VL: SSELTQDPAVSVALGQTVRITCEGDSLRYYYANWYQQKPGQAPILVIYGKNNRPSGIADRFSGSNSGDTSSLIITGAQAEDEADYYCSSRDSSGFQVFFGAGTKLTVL

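The starting antibody came from a phage panning campaign against this peptide. Library AAYL52 holds single substitutions and randomly drawn double and triple substitutions in the CDRs. The scFvs were displayed on barcoded MATa yeast, the peptide on MATalpha yeast. Pairs that bind mate more often; barcode pairs of the diploids are counted by sequencing. The ratio of observed to expected reads was calibrated, replicate by replicate, on BCL2-family standards whose Kd was known from biolayer interferometry. The assay was run in three technical replicates.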

Each variant is given by its three light chain CDRs, as the data file delimits them; those of the parent are EGDSLRYYYAN, GKNNRPS, SSRDSSGFQVF. The read-out is the apparent dissociation constant on a log10 scale (nM): the lower, the stronger. Replicates are averaged; those with no signal do not enter the mean. An entry "nd" has no value in the source: the pair was not observed among the diploids in any replicate. This suggests poor binding but is not conclusive. In this assay the parent's reference entry averaged 2.31; its copy inside this library read 2.25. Empty control strains, which show no peptide, gave a signal in 28% of pairings with library AAYL52; the median was 3.91 and 95% of these signals were weaker than 2.90. No background was subtracted.

CDR-L1,CDR-L2,CDR-L3,mean log10 Kd (nM),detected
VGDSLRYYYAN,GKNNRPS,SSRKSSDFQVF,2.15,3 of 3
EGDSLRYYYAN,GRNNSPS,SSRDSSGGQVF,4.04,3 of 3
ECDSLRYYYAN,GKNNTPS,SSRDSSGFQRF,3.14,2 of 3
EGDKLRYYYAN,GKNNRPS,SSRIMSGFQVF,4.20,3 of 3
EGDELRYYYAN,GKGNRPS,SSRDSSGFQVF,3.56,3 of 3
DGDSLRYYYAN,GKNNRPS,TSRDSSGFQVF,3.74,2 of 3
EPDSLLYYYAN,GKNNRPF,SSRDSSGFQVF,nd,0 of 3
EGDSLWYNYAN,GKNNRPS,SSRDSSLFQVF,1.47,3 of 3
EGDSLRYYYAH,GKNNNPS,SSRDSSGPQVF,3.92,2 of 3
ERDSLRYYYAN,HKNNRPS,SSRDSSGFQVF,nd,0 of 3
EGDSLRYYYAN,GKNRRPS,SSRGSSGFIVF,3.35,2 of 3
EGDSLRHYYAN,GKNNRPW,SSRDSSGFQVF,2.57,3 of 3
EGDSLRYYYAY,GKNNRPS,SSRDSSGFQVC,4.43,2 of 3
AGESLRYYYAN,GKNNRPA,SSRDSSGFQVF,1.25,3 of 3
EGDSLRYHYAN,GKNNRVV,SSRDSSGFQVF,1.46,3 of 3
EGSDLRYYYAN,GKNNRPS,SSRDSSSFQVF,3.28,3 of 3
RGDSLRYYYTN,GKNNRPS,SSRDSSDFQVF,2.87,3 of 3
EGDSLRYYYAN,GQNNRQS,SSLDSSGFQVF,4.02,3 of 3
EWKSNRYYYAN,GKNNRPS,SSRDSSGFQVF,3.46,1 of 3
EGDSHRYYYAN,GKNGRPS,SSRDSSTFQVF,4.38,1 of 3
EGDSLRYYLAN,GKNNYPS,SSIDSSGFQVF,4.68,1 of 3
EGDSIRYYYAN,GKNNRPS,SSKDSSGFQMF,4.65,2 of 3
EGDSLRYYYAN,PQNNRPT,SSRDSSGFQVF,3.61,1 of 3
EGDSLEYYYAN,GWNNRPS,SSSDSSGFQVF,4.17,3 of 3
EGDSLRYYYAN,GKNERPS,SDRDLSGFQVF,2.81,3 of 3
EGDSLRYYYAN,GKNNRPS,SPRDSSGFKPF,4.18,2 of 3
EGDSLRYYYNN,GKNNRPS,SSRDSSQFQVF,3.83,3 of 3
QGDSLRYYYAA,GKANRPS,SSRDSSGFQVF,3.42,3 of 3
EGDSLRYYYAS,GKNNRPS,SARDSSGPQVF,3.89,3 of 3
EGDSLRYYYAN,GKANRPS,SSRDSSGIQVY,2.94,3 of 3

Continued, with the values leading:

mean log10 Kd (nM),detected,CDR-L1,CDR-L2,CDR-L3
2.59,3 of 3,EGDSLRYYNAN,GKNNRPS,LSRDSSGFQVF
2.80,3 of 3,EGDSLRYYYAN,GKSNRPS,VSRDSSGFQVF
2.70,3 of 3,EGDSLRYYYAN,GKNYRPS,SSRMSSGFQVT
3.68,2 of 3,ESDSLRYYYAN,TKNNRPS,SSRDSSGFQVF
2.89,3 of 3,EKDSCRYGYAN,GKNNRPS,SSRDSSGFQVF
3.50,1 of 3,EGHSLMYYYAN,QKNNRPS,SSRDSSGFQVF
4.24,1 of 3,EGPSLRYYYAR,GKNNRPS,SSRDSSGSQVF
3.00,2 of 3,EGDSLRYLYAN,GKNSRPS,SSRCSSGFQVF
2.39,3 of 3,GGDSLRYYYAN,GKNNRPS,SERDSSGEQVF
2.61,3 of 3,EGDSLRYYYAN,GKNVRPS,SSHDSSGFQSF
nd,0 of 3,EGISLRYYYAN,GCNNRPS,SSRDSDGFQVF
4.50,1 of 3,EGWSLRYYYAN,GKNNRPS,SSRDSMGFQVF
3.12,3 of 3,EGDSMWYYCAN,GKNNRPS,SSRDSSGFQVF
3.41,3 of 3,EGDSRRYYYAN,GHNNRPS,SSRDSSGFQVF
1.69,3 of 3,EKDSLRYYYAN,GDNNRPS,SSRDSSGFQAF
2.79,3 of 3,EGDNLRYYYAN,GANNRPS,SSRDSSGFQVY
4.52,1 of 3,EGDSLRYYYLN,GKINRPS,YSRDSSGFQVF
3.39,3 of 3,EGDGLRYYYAN,GKNNRPS,SSRDSSGFVVF
2.37,3 of 3,LGDSLRYYYAV,GKNNRPA,SSRDSSGFQVF
3.88,2 of 3,EGDSLRYYYAN,GKHDRPS,SSRNSSGFQVF
nd,0 of 3,EGDSLFYYYAP,GKNNRPS,QSRDSSGFQVF
2.67,3 of 3,EGDSLRYYYAN,GYNNRPS,SSRDISGNQVF
3.25,3 of 3,EGDSLRYYYAN,GYNNRPS,SSLDSSGFQVF
0.87,3 of 3,EGASLRYYYAN,GKNNRPS,MSRDSSGFQVF
3.67,2 of 3,EGTSLRYYYAN,GKNNRDS,SSHDSSGFQVF
2.74,1 of 3,EGDSLRYYYAN,GSNNRRV,SSRDSSGFQVF
4.09,2 of 3,EGDSLWYYYAN,GKNNRPS,SSRDDSGKQVF
2.34,3 of 3,EGDSLRYYYAN,GKNNRPS,SSRDPNGPQVF
4.83,2 of 3,EGDSLRYYYAN,GKNNIPS,SSRDGSHFQVF
2.78,3 of 3,EGDSLRYYYSN,GKNQRPS,SSRDSMGFQVF

A selection of 9 entries from above:

| CDR-L1 | CDR-L2 | CDR-L3 | mean log10 Kd (nM) | detected |
|---|---|---|---|---|
| EGDELRYYYAN | GKGNRPS | SSRDSSGFQVF | 3.56 | 3 of 3 |
| ESDSLRYYYAN | TKNNRPS | SSRDSSGFQVF | 3.68 | 2 of 3 |
| EGDSLRYYYAN | GKNNIPS | SSRDGSHFQVF | 4.83 | 2 of 3 |
| EGDSLRYYYAY | GKNNRPS | SSRDSSGFQVC | 4.43 | 2 of 3 |
| EGDSLRYYYAN | GSNNRRV | SSRDSSGFQVF | 2.74 | 1 of 3 |
| GGDSLRYYYAN | GKNNRPS | SERDSSGEQVF | 2.39 | 3 of 3 |
| EKDSLRYYYAN | GDNNRPS | SSRDSSGFQAF | 1.69 | 3 of 3 |
| DGDSLRYYYAN | GKNNRPS | TSRDSSGFQVF | 3.74 | 2 of 3 |
| EGDSLRYYNAN | GKNNRPS | LSRDSSGFQVF | 2.59 | 3 of 3 |

Source: Engelhart et al. 2022 (doi:10.1038/s41597-022-01779-4), MIT Lincoln Laboratory and A-Alpha Bio; data file from the FLAb repository.